## AlphaSeq binding of Ab-14 heavy chain variants to a spike HR2 peptide

Source: Li et al. 2023 (doi:10.1038/s41467-023-39022-2), MIT Lincoln Laboratory and A-Alpha Bio; data file from the FLAb repository.

Target peptide (SARS-CoV-2 spike, HR2 region): PDVDLGDISGINAS

Parent scFv Ab-14: VH joined to VL by a 15-residue (Gly4Ser)3 linker. Changes lie in the heavy chain CDRs alone.
VH: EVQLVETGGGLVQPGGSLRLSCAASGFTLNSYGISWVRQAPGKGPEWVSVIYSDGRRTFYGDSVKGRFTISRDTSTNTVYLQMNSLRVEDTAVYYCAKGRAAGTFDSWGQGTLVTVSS
VL: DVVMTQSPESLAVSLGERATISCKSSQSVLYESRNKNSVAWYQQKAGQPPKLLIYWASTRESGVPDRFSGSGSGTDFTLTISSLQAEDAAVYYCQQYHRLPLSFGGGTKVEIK

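These sequences belong to a second round, designed from the earlier measurements on random variants of the parent. Group labels follow the data file (Ctrl: baseline library sampled from a position-specific scoring matrix, with some repeated check sequences; Rand: our label for a block that the file lists under HC and that is probably the random mutants of the ten best first-round binders; En: ensemble of fine-tuned language models; GP: Gaussian process model; GPLM: also part of the Gaussian process libraries; HC: hill climbing; Gen: genetic algorithm; Gibbs: Gibbs sampling; a sequence that several methods proposed may carry one label only). AlphaSeq pools MATa yeast showing the antibodies with MATalpha yeast showing the peptide. Mating (16 h, 30 °C) was followed by selection of diploids and sequencing of their barcodes. Each replicate has its own calibration line, from reference interactions of the BCL2 family. Mating was done six times.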

Variants are written as CDR1, CDR2 and CDR3 of the heavy chain (limits as in the source). Parent: GFTLNSYGIS, VIYSDGRRTFYGDSVK, GRAAGTFDS. Values are log10 of the apparent Kd in nM; lower means stronger binding. Averages over replicates are reported, and they cover detected replicates only. Where no diploid with the target was found in that replicate, the entry reads "nd": below detection, most likely a poor binder, though not proof of it. Three control strains display no target. For all heavy chain designs, 1% of the pairings with them gave a signal, with a median of 2.08 and one signal in twenty below 0.84, so weak values seen in few replicates may be background. Some sequences occur more than once in the pool; their replicates are listed entry by entry, parted by semicolons. The authors' rule: three or more of the six replicates give a measured affinity, fewer mean a poor binder. Values of this round are not directly comparable with the first-round values of the same sequences.

log10 Kd, replicates | mean, log10 nM | CDR-H1 | CDR-H2 | CDR-H3 | group
nd nd nd nd nd nd | nd | GFTLNSYGIS | VIYSDGRRVFYADSVK | GRWAATGWS | Ctrl
0.04 1.01 -0.40 -0.34 0.16 0.36 | 0.14 | GFTLNEYGIS | VIYSDGRRTFYGDSVK | GKNAGTFDS | GPLM_Gen
1.67 0.98 0.45 0.78 0.14 0.69 | 0.79 | DFNLNEYGIS | VIYADGQRASYDDKVK | GQISGTFDT | En_Gibbs
2.52 2.69 0.55 1.81 2.17 1.75 | 1.91 | GFGLSEYGIS | VIYADGMRTSYDDNIK | GALAGTFDE | En_Gibbs
nd nd nd nd nd nd | nd | GFSLGEYGIS | VIYADGVRRSYADKVK | GKNGAISSV | En_Gibbs
-1.06 -1.01 -0.87 -1.27 -0.66 0.06 | -0.80 | GFDLEDYGIS | VIYADGRRTFYADSVK | GEAAGTFDL | En_HC
-0.08 0.62 0.86 -0.16 0.90 0.46 | 0.43 | GFDLNSYGIS | VIYSDGRRTFYGDEVK | GKTAGTFDS | GP_Gen
nd nd nd nd nd nd | nd | GFDLNEYGIS | VIYADGKRTAYADDVK | GSNAGTFDI | En_Gen
0.13 0.02 -0.10 -0.23 -0.17 -0.04 | -0.07 | GFNLNEYGIS | VIYADGRRTFYSDSVK | GEHAGTFDV | En_HC
-0.38 -0.74 -0.86 -0.82 -0.48 -0.88 | -0.69 | GFDLNEYGIS | VIYADGRRTFYADSVK | GENAGTFTL | En_HC
nd nd nd nd nd nd | nd | EFTLNSYGIS | VIYADGRRTFYGDSVK | GRAAGTFKS | GP_HC
0.20 -0.30 -0.07 0.12 0.11 0.25 | 0.05 | GFDLNEYGIS | VIYADGKRTFYSDSVK | GTNGGTFDM | En_HC
nd nd nd nd nd nd | nd | GQHLDEYGIS | VIYADGMRKYYADNVK | GKSVGSIII | En_Gibbs
-0.70 -0.48 -1.00 -0.69 -1.70 -0.68 | -0.87 | GFDLNEYGIS | VIYADGMRTAYADDVK | GNVAGTFDI | En_Gen
-0.39 -0.64 -0.72 -0.81 -0.91 -0.56 | -0.67 | GFDLDEYGIS | VIYADGRRTFYVDSVK | GSNAGTFDM | En_HC
1.60 nd nd nd nd nd | 1.60 | GFDIEEYGIS | VIYADGVRTAYSQNFK | VGNTFDLDI | En_Gibbs
nd 0.90 0.03 0.47 0.33 nd | 0.43 | GFDLNEYGIS | VIYADGMRTHYTDSVK | GNEAGTFDM | En_HC
nd nd nd nd nd nd | nd | GFAINSYGIS | VIYSDGRRTFYGDSVK | GRAAGTFDT | Ctrl
nd nd nd nd nd nd | nd | GRSLESYGIS | VIYSDGRRTFYGDSVK | GRAAGTFDS | Ctrl
-0.38 -0.45 -0.83 -0.99 -0.58 -0.49 | -0.62 | GFDLNEYGIS | VIYADGMRTAYKDSVK | GNVAGTFDL | En_Gen
nd nd nd nd nd nd | nd | GEDLNSYGIS | VIYADGVRTAYADNFK | GNGEGQFDV | En_Gibbs
nd nd nd nd nd nd | nd | GLTLNSYGIS | VIYSDGRRTFYGDSVR | GRAAGAFDS | Ctrl
nd nd nd nd nd nd | nd | GFTLNSYGIS | VIYRDGRRTFYGDSVK | GRPAGTFSS | Ctrl
1.19 1.05 0.39 0.66 0.94 0.72 | 0.82 | GFWLNEYGIS | VIYSDGRRTFYGDSVK | GRMAGTFDT | GP_Gen
nd nd nd nd nd nd | nd | GFDLNSYGIS | VIYSTGRRTFYGDSVK | GRAAGWFNS | Rand
1.38 1.96 2.43 nd 1.47 1.95 | 1.84 | GFKLNSYGIS | VIYSDGRRTFYADSVK | GRNAGTFDS | GP_Gen
-0.32 -0.50 -0.81 -0.74 -0.65 -0.55 | -0.59 | GFDLEDYGIS | VIYADGRRTAYADSVK | GEAAGTFDS | En_HC
0.35 0.35 0.26 0.34 0.19 0.42 | 0.32 | GFDLNEYGIS | VIYADGMRTFYSDSVK | GTAGGTFDM | En_HC
nd nd nd nd nd nd | nd | GKSLDEYGIS | VIYADGMRHMYTDSVK | GQFDDGMDL | En_Gibbs
nd nd nd nd nd nd | nd | GFTLNSYGIS | VIYWDGRRTFYGDSVK | GRAAVTFDS | Ctrl
-0.98 -1.20 -0.95 -0.90 -1.51 -1.04 | -1.09 | GFDLNEYGIS | VIYADGKRTAYADDVK | GETAGTFDL | En_Gen
nd 0.41 -0.92 nd -0.09 -0.43 | -0.25 | GFDINEYGIS | VIYADGMRTKYSESVK | GTVDGSFNG | En_Gibbs
0.28 0.49 0.28 0.51 0.54 0.28 | 0.40 | GFDLNEYGIS | VIYADGRRTQYADSVK | GEQAGTFDV | En_HC
nd 1.11 2.17 nd nd 1.28 | 1.52 | GFTLNSYGIS | VIYSDGRRTFYIDSVK | GRAAGEFDS | Ctrl
0.73 0.25 0.74 0.10 0.46 0.38 | 0.44 | GFQLNEYGIS | VIYSDGRRTFYSDSVK | GQAAGTFDS | GPLM_Gibbs
0.39 0.92 0.09 0.34 0.37 0.73 | 0.47 | GFTLNEYGIS | VIYSDGQRTFYTDDVK | GRAAGTFDS | Ctrl
0.27 -0.33 -0.03 -0.30 -0.19 -0.04 | -0.10 | GFDLNEYGIS | VIYADGVRTFYADDVK | GNQAGTFDV | En_Gen
nd nd nd nd 1.78 nd | 1.78 | GFTINSYGIS | VIYSDGRRTFYGDSVK | GRACGTFES | Ctrl
nd nd nd nd nd nd | nd | GFTLESYGIS | VIYSDGRRTFYGDDVK | GTAAGTFDS | Ctrl
0.13 0.36 0.01 -0.07 0.16 0.47; 0.34 0.68 0.64 0.39 0.43 0.59 | 0.34 | GFTLNDYGIS | VIYSDGRRTFYGDSVK | GRTAGTFDS | Ctrl+GPLM_Gen
nd nd nd nd nd nd | nd | HFTLESYGIS | VIYADGRRTFYGDSVK | GRAAGTFKS | GP_HC
0.48 -0.29 0.22 1.12 0.16 0.36 | 0.34 | GFDLDEYGIS | VIYADGMRTYYADSVK | GENAGTFDQ | En_Gen
0.33 0.34 -0.20 0.24 0.11 0.35 | 0.19 | GFDLDEYGIS | VIYADGQRTAYADDVK | GNEAGTFDV | En_Gen
0.19 -0.19 -0.28 -0.46 -0.47 0.21 | -0.17 | GFDLNEYGIS | VIYADGMRTAYADQVK | GENAGTFDV | En_Gen
nd nd nd nd nd nd | nd | DFTLNSYGIS | VIYSDGRRTFYGDSVV | GRAAGTFDS | Ctrl
nd nd nd nd nd nd | nd | GFTLESYGIS | VIYSDGRRTFYGDAVK | GRAAGTFRS | Ctrl
-0.54 -0.74 -0.50 -0.69 -0.32 0.01 | -0.46 | GFDLNEYGIS | VIYADGMRTSYTDSVK | GNVAGTFDV | En_Gen
-0.39 -0.47 -0.31 -0.39 -0.54 -0.26 | -0.40 | GFDLNEYGIS | VIYADGVRTAYADDVK | GENAGTFDM | En_Gen
nd nd nd nd nd nd | nd | GFTLNQYGIS | VIYSDGRRTFYADSVK | GRAAGTFTS | GPLM_HC
nd nd -0.56 nd -0.55 0.24 | -0.29 | GFSLNNYGIS | VIYSDGRRTFYVDSVK | GRQAGTFDS | GPLM_Gibbs

Top 8 of the variants detected in all replicates, tightest first:

CDR-H1 | CDR-H2 | CDR-H3 | group | log10 Kd, replicates | mean, log10 nM
GFDLNEYGIS | VIYADGKRTAYADDVK | GETAGTFDL | En_Gen | -0.98 -1.20 -0.95 -0.90 -1.51 -1.04 | -1.09
GFDLNEYGIS | VIYADGMRTAYADDVK | GNVAGTFDI | En_Gen | -0.70 -0.48 -1.00 -0.69 -1.70 -0.68 | -0.87
GFDLEDYGIS | VIYADGRRTFYADSVK | GEAAGTFDL | En_HC | -1.06 -1.01 -0.87 -1.27 -0.66 0.06 | -0.80
GFDLNEYGIS | VIYADGRRTFYADSVK | GENAGTFTL | En_HC | -0.38 -0.74 -0.86 -0.82 -0.48 -0.88 | -0.69
GFDLDEYGIS | VIYADGRRTFYVDSVK | GSNAGTFDM | En_HC | -0.39 -0.64 -0.72 -0.81 -0.91 -0.56 | -0.67
GFDLNEYGIS | VIYADGMRTAYKDSVK | GNVAGTFDL | En_Gen | -0.38 -0.45 -0.83 -0.99 -0.58 -0.49 | -0.62
GFDLEDYGIS | VIYADGRRTAYADSVK | GEAAGTFDS | En_HC | -0.32 -0.50 -0.81 -0.74 -0.65 -0.55 | -0.59
GFDLNEYGIS | VIYADGMRTSYTDSVK | GNVAGTFDV | En_Gen | -0.54 -0.74 -0.50 -0.69 -0.32 0.01 | -0.46